{"sequences": {"note": "The chains behind the UniProt entries cited, without tags or fusion partners. Residues count along the entry.", "UniProt Q02763, 23-1124": "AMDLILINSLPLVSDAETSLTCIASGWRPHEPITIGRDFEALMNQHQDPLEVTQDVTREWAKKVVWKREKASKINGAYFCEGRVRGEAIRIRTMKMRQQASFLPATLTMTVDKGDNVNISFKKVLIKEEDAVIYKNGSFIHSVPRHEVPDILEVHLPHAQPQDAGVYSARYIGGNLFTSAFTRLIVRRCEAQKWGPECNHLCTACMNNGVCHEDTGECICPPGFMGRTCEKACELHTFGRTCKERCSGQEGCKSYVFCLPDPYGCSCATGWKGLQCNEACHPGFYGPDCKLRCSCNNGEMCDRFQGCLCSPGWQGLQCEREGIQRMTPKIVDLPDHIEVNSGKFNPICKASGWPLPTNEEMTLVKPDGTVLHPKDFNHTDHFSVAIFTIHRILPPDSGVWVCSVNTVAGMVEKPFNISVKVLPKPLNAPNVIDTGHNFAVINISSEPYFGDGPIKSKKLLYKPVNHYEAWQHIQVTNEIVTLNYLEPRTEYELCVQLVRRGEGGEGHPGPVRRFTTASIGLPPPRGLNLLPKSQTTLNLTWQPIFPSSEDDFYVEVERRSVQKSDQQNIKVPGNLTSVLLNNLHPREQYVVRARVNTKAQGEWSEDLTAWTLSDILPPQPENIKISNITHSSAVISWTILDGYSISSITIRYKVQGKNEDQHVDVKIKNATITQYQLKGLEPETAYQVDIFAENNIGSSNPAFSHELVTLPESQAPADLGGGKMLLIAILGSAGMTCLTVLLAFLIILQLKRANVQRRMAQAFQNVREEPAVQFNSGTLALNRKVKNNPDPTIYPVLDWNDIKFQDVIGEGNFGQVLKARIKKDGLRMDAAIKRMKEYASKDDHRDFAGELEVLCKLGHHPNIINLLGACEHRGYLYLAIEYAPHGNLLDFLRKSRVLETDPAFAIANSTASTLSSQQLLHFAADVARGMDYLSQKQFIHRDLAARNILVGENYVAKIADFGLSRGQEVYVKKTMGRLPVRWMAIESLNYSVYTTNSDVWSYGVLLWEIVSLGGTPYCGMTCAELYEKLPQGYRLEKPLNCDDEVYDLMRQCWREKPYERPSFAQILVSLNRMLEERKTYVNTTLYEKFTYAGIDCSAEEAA"}, "source": "patent US20250345387A1", "about": "“CORONAVIRUS THERAPEUTICS AND TREATMENT METHODS” (priority 2020, published 2025)", "molecules": {"B1": {"name": "parental Vasculotide (peptide)", "peptide": "CHHHRHSF", "modifications": "thiol of the amino terminal cysteine joined to a maleimide arm of a 10 kDa 4-armed polyethylene glycol; mixture of 5-membered succinimide and 6-membered thiazin ring products", "notes": "Manufactured by Bachem; also called VT; parental VT"}}, "key": {"[1]": {"target": "T1, Tie2 receptor (Homo sapiens, UniProt Q02763)", "T1 construct": "endogenous in cells; host or cells: HUVEC; HMVEC-tert (human dermal microvascular endothelial cells immortalized with telomerase)", "experiment": "Tie2 phosphorylation ELISA in HUVEC", "type": "cell-based", "conditions": "15 minute stimulation, only a single significant response", "description": "Human umbilical vein endothelial cells (HUVECs) were seeded on 100 mm tissue culture plates in complete endothelial basal media (EBM)(Lonza) supplemented with ‘EGM single quots’ (Lonza) in 20% O2, 5% CO2 and 37° C. humidified chamber according to manufacturer's recommendations. Cells that had reached 90% confluence were simulated for 15 minutes with the specified concentrations of parental Vasculotide, MPA-Br or Angiopoietin-1 (R&D Systems) in complete EBM media. Following the 15 minute stimulation, cells were placed on ice and washed twice in ice cold PBS. Cell lysates were prepared for use in 1C12 lysis buffer (1% NP-40, 20 mM Tris (pH 8.0), 137 mM NaCl, 10% Glycerol, 2 mM EDTA, 1 mM activated sodium orthovanadate). BCA protein concentration kit was used to measure protein concentration of each lysate as per manufacturer's instructions (Thermo Scientific). Samples were subjected to ELISAs that measured phosphorylated Tie2 and total Tie2 levels according to the manufacturers protocol. 20 μg or 5 μg of protein from each sample was loaded in duplicate for phosphorylated Tie2 and total Tie2 readings respectively. Phosphorylated Tie2:total Tie2 ratios were determined for each sample. The level of Tie2 phosphorylation for all treatment groups were then normalized to that of the no treatment group (NT, complete EBM only) in each experiment."}, "[2]": {"target": "T1, Tie2 receptor", "experiment": "Tie2 phosphorylation ELISA in HMVEC^tert", "type": "cell-based", "description": "Human microvascular endothelial cells (dermal origin) immortalized with human telomerase reverse transcriptase/catalytic subunit (tert), Shao and Guo (2004) were seeded on 100 mm tissue culture plates in complete endothelial basal media-2 (EBM-2)(Lonza) and were cultured in 20% O2, 5% CO2 and 37° C. humidified chamber. Growth media consisted of EBM-2, supplemented with 10% fetal bovine serum, 1× pen/strep, 1 ug/ml hydrocortisone and 100 ng/ml EGF. Cells that had reached 90% confluence were simulated for 15 minutes with the specified concentrations of parental Vasculotide, MPA-Br or Angiopoietin-1 in complete EBM-2 media. Following the 15 minute stimulation, cells were placed on ice and washed twice in ice cold PBS. Cell lysates were prepared for use in IC12 lysis buffer (1% NP-40, 20 mM Tris (pH 8.0), 137 mM NaCl, 10% Glycerol, 2 mM EDTA, 1 mM activated sodium orthovanadate). BCA protein concentration kit was used to measure protein concentration of each lysate. Samples were subject to ELISA measuring pYTie2 and total Tie2 concentration. 20 μg of protein from each sample were loaded to each well, each sample was run in duplicate. Relative pTie2 to total Tie2 ratios were determined for each sample. The level of Tie-2 phosphorylation in each treatment group was normalized to that of EBM-treated group in each experiment."}, "[3]": {"target": "human Tie2 receptor on human endothelial cells (HUVEC, HMVECtert) (human, UniProt Q02763 23-1124)", "experiment": "cell-based or functional assay"}}, "data": [{"molecule": "parental Vasculotide: 10 kDa 4-armed polyethylene glycol with Tie2 binding peptides (CHHHRHSF) attached via maleimide; mimics Ang1 [reference compound]", "values": [{"measurement": "dose with significant Tie2 activation (pTie2/total Tie2 vs no treatment)", "setting": "[1]", "value": 1000, "unit": "ng/ml"}, {"measurement": "concentration at which activation became apparent, relative to MPA-Br", "setting": "[2]", "value": "five times higher concentration"}]}, {"molecule": "B1", "values": [{"measurement": "relative magnitude of Tie2 activation in HMVECtert", "setting": "[3]", "value": "~2.6", "unit": "fold"}]}]}
